SMILES strings stand for the structures. The entries are a selection whose mix differs from that of the whole data set. Calls of active or inactive are those of the source.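 Rule for the calls: active = plate Z-score above 3 for both tubulin-high and condensed-nucleus cell shares, with cell loss under 80%, at 10 µM; inactive = the rest, inconclusive results apart.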

The experiment in a line: tubulin staining increase by stabilizing compounds – imaging, high-content imaging, primary screen (AID 2205). The note with it: HeLa tubulin immunostaining HCS, 24 h; at 10 µM; hits give high values; share of cells brighter than vehicle mean+2SD.
For `COC(=O)c1cc2c(s1)N=C(c1ccccc1)N(C)P2(=O)N1CCOCC1` (stereo not given), the % tubulin-high responders was inactive: 4.22%.

Take `O=c1c2cc([N+](=O)[O-])ccc2[nH]c2c([N+](=O)[O-])cc([N+](=O)[O-])cc12`: the % tubulin-high responders is inactive: 6.62%.

In the case of `CP(=O)(Nc1ccccc1)Oc1ccc(F)cc1` (stereo not given), the % tubulin-high responders was inactive: 1.72%.

Consider `O=P(Nc1ccccn1)(c1ccc(Br)cc1)c1ccc(Br)cc1`, for which the % tubulin-high responders is inactive: 5.63%.

As for `COc1ccc(OP(C)(=O)Nc2cccc(Br)c2)cc1` (stereo not given), the % tubulin-high responders was inactive: 2.94%.

With `COc1ccc(NP(C)(=O)Oc2ccccc2OC)cc1` (stereo not given), the % tubulin-high responders was inactive: 1.74%.

On to `CN(C)CCOC(=O)C(O)(c1ccccc1)C1CCCCC1` (stereo not given), for which the % tubulin-high responders is inactive: 3.59%.

On to `O=[N+]([O-])c1cc([N+](=O)[O-])c(NCC2CCS(=O)(=O)C2)c([N+](=O)[O-])c1` (stereo not given), for which the % tubulin-high responders is inactive: 3.12%.

In the case of `CC(=O)NC(SC(=S)N(C)C)C(Cl)(Cl)Cl` (stereo not given), the % tubulin-high responders is inactive: 3.02%.

Consider `O=C(OC1CN2CCC1CC2)c1cccc(Cl)c1` (stereo not given), for which the % tubulin-high responders was inactive: 6.2%.

On to `C(Cc1nn[nH]n1)Cc1nn[nH]n1`, for which the % tubulin-high responders was inactive: 3.32%.

As to `CC(C)C(=O)NC(Sc1ccccc1)C(Cl)(Cl)Cl` (stereo not given), the % tubulin-high responders is inactive: 2.27%.

As for `O=P(Nc1nccs1)(c1ccccc1)c1ccccc1`, the % tubulin-high responders is inactive: 2%.

Regarding `c1nnnn1CCn1cnnn1`, the % tubulin-high responders was inactive: 1.14%.

Turning to `CCOP(C)(=S)SCC(=O)NC(C)(CC)C(=O)O` (stereo not given), the % tubulin-high responders was inactive: 1.62%.

`CP(=O)(Nc1ccc2c(c1)OCCO2)Oc1ccccc1` (stereo not given): the % tubulin-high responders was inactive: 3.66%.

As to `Cc1ccccc1NP(C)(=O)Nc1ccccc1C`, the % tubulin-high responders is inactive: 7.41%.

Consider `O=[N+]([O-])c1cc([N+](=O)[O-])c(-n2nnc3ccccc32)c([N+](=O)[O-])c1`, for which the % tubulin-high responders is inactive: 7.39%.

Turning to `O=P1(Nc2ccccn2)COc2ccccc2OC1`, the % tubulin-high responders was inactive: 5.42%.

For `Clc1n[nH]nc1-c1nn[nH][15n]1`, the % tubulin-high responders was inactive: 4.34%.

Turning to `CC(C)/C=N\N=C(\N)N[N+](=O)[O-]`, the % tubulin-high responders was inactive: 4.93%.

Consider `Cc1nc2ccc3ccccc3c2s1.O=[N+]([O-])c1cc([N+](=O)[O-])c(O)c([N+](=O)[O-])c1`, for which the % tubulin-high responders is inactive: 4.93%.

As for `CC1(CBr)Cn2c(nc3ccccc3c2=O)S1` (stereo not given), the % tubulin-high responders was inactive: 3.09%.

Turning to `CC1CCC(C(C)C)C(OP(=O)(Nc2ccccn2)c2ccccc2)C1` (stereo not given), the % tubulin-high responders is inactive: 3.8%.

In the case of `Cc1nn(-c2ccccc2)c2c1P(=O)(N1CCOCC1)N(C)C(c1ccccc1)=N2` (stereo not given), the % tubulin-high responders was inactive: 1.88%.

In the case of `COc1cc(C2NCCC3(OCCO3)C2(C)C)cc(OC)c1OC.O=[N+]([O-])c1cc([N+](=O)[O-])c(O)c([N+](=O)[O-])c1` (stereo not given), the % tubulin-high responders was inactive: 4.06%.

Consider `CN(C)C1(CNC(=O)c2ccc(S(C)(=O)=O)cc2)CCCCC1`, for which the % tubulin-high responders is inactive: 2.62%.

In the case of `O=P1(Nc2ncccn2)COc2ccccc2OC1`, the % tubulin-high responders was inactive: 3.26%.

Turning to `COc1ccccc1OP(C)(=O)Nc1c(C)cccc1C` (stereo not given), the % tubulin-high responders was inactive: 2.48%.

Regarding `CN1CCCCC1COC(=O)C1(O)c2ccccc2CCc2ccccc21` (stereo not given), the % tubulin-high responders is inactive: 2.44%.

As for `CP(=O)(Nc1ccc(SC(F)(F)F)cc1)Oc1ccccc1` (stereo not given), the % tubulin-high responders is inactive: 1.42%.

`CCCOc1ccc(NP(C)(=O)Oc2ccc(Cl)cc2)cc1` (stereo not given): the % tubulin-high responders was inactive: 3.06%.

Regarding `O=P1(Nc2ccc(Br)cn2)COc2ccccc2OC1`, the % tubulin-high responders was inactive: 3.64%.

Turning to `Cc1ccc(OCC(=O)OC2CN3CCC2CC3)cc1` (stereo not given), the % tubulin-high responders was inactive: 2.78%.

`O=P(Nc1nccs1)(c1ccccc1)c1nc2ccccc2s1` (stereo not given): the % tubulin-high responders was inactive: 4.07%.

Turning to `O=P(Nc1nccs1)(Oc1ccccc1)Oc1ccccc1`, the % tubulin-high responders was inactive: 3.27%.

With `CCOP1(=S)c2c(C)nn(CCC#N)c2N=C(c2ccccc2F)N1C` (stereo not given), the % tubulin-high responders was inactive: 3.69%.

`CCOP1(=S)c2c(C)nn(CCC#N)c2N=C(c2ccc(F)cc2)N1C` (stereo not given): the % tubulin-high responders is inactive: 2.24%.

With `CC1=NCCc2c1[nH]c1ccccc21.O=[N+]([O-])c1cc([N+](=O)[O-])c(O)c([N+](=O)[O-])c1`, the % tubulin-high responders was inactive: 5.16%.

`O=[N+]([O-])c1ccc2c(c1)nnn2O`: the % tubulin-high responders was inactive: 3.11%.

In the case of `COc1cc(C(=O)NCC2(N3CCOCC3)CCCCC2)cc(Cl)c1OC(C)C`, the % tubulin-high responders was inactive: 2%.

Consider `Cc1cc(C)cc(OP(C)(=O)Nc2ccc(C)cc2C)c1` (stereo not given), for which the % tubulin-high responders was inactive: 1.33%.

Consider `Cc1cccc(OCC(=O)OC2CN3CCC2CC3)c1` (stereo not given), for which the % tubulin-high responders is inactive: 1.84%.

With `CCOC(=O)c1ccc(NP(C)(=O)Oc2cc(C)cc(C)c2)cc1` (stereo not given), the % tubulin-high responders is active: 17.9%.

On to `Cc1ccc(NCCc2c([N+](=O)[O-])cc([N+](=O)[O-])cc2[N+](=O)[O-])cc1`, for which the % tubulin-high responders is inactive: 3.98%.

For the compound `CP(=O)(Nc1cccc(Br)c1)Oc1ccccc1` (stereo not given), the % tubulin-high responders was inactive: 4.52%.

In the case of `Cc1cc(C)cc(OP(C)(=O)Nc2ccccn2)c1` (stereo not given), the % tubulin-high responders is inactive: 2.43%.

For `Cc1ccc(C)c(NP(C)(=O)Oc2ccccc2)c1` (stereo not given), the % tubulin-high responders is inactive: 2.76%.

For the compound `CCOP(=O)(Nc1cccc2ccccc12)OCC`, the % tubulin-high responders is inactive: 3.4%.

Consider `Cc1c2c(nc3ccccc13)SC(C(Cl)Cl)C2` (stereo not given), for which the % tubulin-high responders was inactive: 3.17%.

Turning to `CCN(CC)CCCOC(=O)C(O)(c1ccccc1)c1ccccc1`, the % tubulin-high responders was inactive: 3.99%.

As to `Cc1cc(=O)[nH]c(N[N+](=O)[O-])n1`, the % tubulin-high responders is inactive: 3.04%.

On to `O=C(OC1CN2CCC1CC2)C12CC3CC(CC(C3)C1)C2` (stereo not given), for which the % tubulin-high responders is inactive: 5.29%.

As to `COc1ccc2nc(NP(=O)(c3ccccc3)c3ccccc3)sc2c1`, the % tubulin-high responders is inactive: 1.86%.

In the case of `COc1ccc(N/C(=N/P(=O)(N2CCOCC2)N2CCOCC2)N2CCOCC2)cc1`, the % tubulin-high responders is inactive: 1.39%.

Consider `Cc1cccc(C)c1OP(C)(N)=O` (stereo not given), for which the % tubulin-high responders was inactive: 3.25%.

For the compound `CC(C)(C)c1ccc(OP(C)(=O)Nc2ccc(SC(F)(F)F)cc2)cc1` (stereo not given), the % tubulin-high responders was inactive: 1.96%.

As for `Cc1ccc2nc3c(c(C)c2c1)CC(C(Cl)Cl)S3` (stereo not given), the % tubulin-high responders was inactive: 4.88%.

For the compound `O=[N+]([O-])c1ccc2c(c1)C=Nc1ccccc1O2`, the % tubulin-high responders is inactive: 7.25%.

Regarding `ClCCSc1nnc(-c2cccnc2)o1`, the % tubulin-high responders is inactive: 2.14%.

Turning to `CCOC(=O)c1ccc(NP(C)(=O)Oc2ccccc2)cc1` (stereo not given), the % tubulin-high responders is inactive: 2.15%.

Regarding `Cc1ccc(NP(C)(=O)Oc2ccccc2)c(C)c1` (stereo not given), the % tubulin-high responders was inactive: 3.47%.

`COc1ccccc1OP(C)(=O)Nc1ccc(C)cc1` (stereo not given): the % tubulin-high responders was inactive: 7.46%.

With `O=[N+]([O-])c1cc([N+](=O)[O-])c(-c2ccn[nH]2)s1`, the % tubulin-high responders is inactive: 2.94%.

On to `COc1ccc(OP(C)(=O)Nc2cccc(F)c2)cc1` (stereo not given), for which the % tubulin-high responders was inactive: 2.18%.

Turning to `CCN(CC)C(=S)SC(NC=O)C(Cl)(Cl)Cl` (stereo not given), the % tubulin-high responders is inactive: 2.47%.

Consider `COc1ccccc1OP(C)(=O)Nc1cc(Cl)ccc1C` (stereo not given), for which the % tubulin-high responders is inactive: 3.62%.

Consider `CC(C)NC(=O)NP(=O)(Oc1ccccc1)Oc1ccccc1`, for which the % tubulin-high responders was inactive: 2.4%.

Regarding `Cc1cc(C)cc(OP(C)(N)=O)c1` (stereo not given), the % tubulin-high responders was inactive: 3.46%.

In the case of `Cc1cc(SC(NC(=O)c2ccccc2)C(Cl)(Cl)Cl)nc(C(C)C)n1` (stereo not given), the % tubulin-high responders was inactive: 7.1%.

As to `CP(=S)(Nn1cnnc1)Oc1ccccc1` (stereo not given), the % tubulin-high responders was inactive: 2.71%.

As for `COc1ccccc1OP(C)(=O)Nc1ccccc1` (stereo not given), the % tubulin-high responders is inactive: 1.01%.

Turning to `O=P(Nc1ccccn1)(c1cccc2ccccc12)c1cccc2ccccc12`, the % tubulin-high responders was inactive: 5.46%.

For `Cc1cc(SC(NC=O)C(Cl)(Cl)Cl)ncn1` (stereo not given), the % tubulin-high responders was inactive: 2.3%.

As for `CP(=O)(Nc1ccccc1Br)Oc1ccccc1` (stereo not given), the % tubulin-high responders is inactive: 2.62%.

Regarding `CP(=O)(Oc1ccccc1)OC(c1ccccc1)C(F)(F)F` (stereo not given), the % tubulin-high responders is inactive: 4.59%.

For the compound `Cc1cccc(C)c1OP(C)(=O)Nc1ccc(SC(F)(F)F)cc1` (stereo not given), the % tubulin-high responders was inactive: 4.23%.

As to `COP1(=S)c2c(C)nn(CCC#N)c2N=C(c2ccc(F)cc2)N1C` (stereo not given), the % tubulin-high responders was inactive: 1.87%.

On to `Cc1cc(C)cc(OP(C)(=O)Nc2ccc(SC(F)(F)F)cc2)c1` (stereo not given), for which the % tubulin-high responders is inactive: 4.45%.

For the compound `O=C(COc1ccccc1)OC1CN2CCC1CC2` (stereo not given), the % tubulin-high responders is inactive: 1.45%.

Consider `CP(=O)(NC(=O)Nc1ccccc1)Oc1ccccc1` (stereo not given), for which the % tubulin-high responders is inactive: 4.49%.

For `CCOP(C)(=S)SCC(=O)NC(C)C(=O)O` (stereo not given), the % tubulin-high responders is inactive: 2.98%.

In the case of `CCOC(=O)c1ccc(NP(C)(=O)Oc2ccc(OC)cc2)cc1` (stereo not given), the % tubulin-high responders was inactive: 3.08%.

Consider `CCC(C)N(CC(C)C)C(=S)SC(NC(C)=O)C(Cl)(Cl)Cl` (stereo not given), for which the % tubulin-high responders is inactive: 6.01%.

For `CP(=O)(Nc1ccccn1)Oc1ccc(Cl)cc1` (stereo not given), the % tubulin-high responders is inactive: 1.31%.

For the origin of these results see PubChem BioAssay AID2205 (University of Pittsburgh Molecular Library Screening Center, 2009).
